One substance from patent publication US6713265B1 (Synaptic Pharmaceutical Corporation, priority 1999, dated 2004) can be followed below.

In general, pKd refers to the Kd on a negative log10 scale, so that one unit is a factor of ten.

The assay has as its target T1, human Y5 receptor (Homo sapiens, UniProt Q15761).
T1 sequence (Q15761 1-445): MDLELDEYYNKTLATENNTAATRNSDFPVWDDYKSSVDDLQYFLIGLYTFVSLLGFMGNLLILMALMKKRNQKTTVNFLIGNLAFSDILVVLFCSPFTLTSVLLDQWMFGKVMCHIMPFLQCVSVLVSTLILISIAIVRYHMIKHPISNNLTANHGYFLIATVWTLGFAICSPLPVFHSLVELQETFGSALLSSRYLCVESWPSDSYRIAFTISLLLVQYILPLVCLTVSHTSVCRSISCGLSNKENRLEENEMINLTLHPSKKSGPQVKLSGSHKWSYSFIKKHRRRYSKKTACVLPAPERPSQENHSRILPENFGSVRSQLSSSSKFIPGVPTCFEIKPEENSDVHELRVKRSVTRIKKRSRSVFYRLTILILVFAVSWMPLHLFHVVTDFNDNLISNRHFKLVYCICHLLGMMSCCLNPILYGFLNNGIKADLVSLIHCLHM
The assay can be described thus: Radioligand binding to membranes of cells expressing cloned human Y5 receptor. Also noted: Ki Values, Human Y5; apparent Kd; pKd; The isolated clone (CG-19) turned out to contain a full length cDNA; The longest open reading frame encodes a 455 amino acid protein. Conditions: saturation binding; for Kd: read-out: apparent Kd.

“And” between values parts separate entries of the source, which are not always exact repeats. Equal entries are not always repeated. Where two headings read alike, the source gives them in different places.

On to ^125I-PYY, for which the pKd is on record as 9.76±0.11 (COS-7 transient human Y5, n=4) and 9.32±0.07 (LM(tk-) clone #7). Moreover, the Kd runs as follows: (COS-7 transient human Y5) 0.1 nM and 0.18 nM; (LM(tk-) clone #7 stable human Y5) 0.47 nM; (NIH-3T3 clone #8 stable human Y5) 0.3 nM.
